Like-named read-outs stand apart in the source and are kept apart here.
Key:
kOR [1] = target: T1, kOR (Mus musculus, UniProt P33534); assay type: binding; conditions: read-out: Ki value
kOR [2] = target: T1, kOR; assay type: cell-based; conditions: read-out: EC50 of kOR activation (cAMP)
kOR [3] = target: T1, kOR; assay type: cell-based; conditions: read-out: EC50 of beta arrestin recruitment

By UniProt entry, the sequences of proteins in these tests, tags left out. Where a name states a change or a piece, a line headed by the entry shows the natural chain unless it says otherwise.
UniProt P33534: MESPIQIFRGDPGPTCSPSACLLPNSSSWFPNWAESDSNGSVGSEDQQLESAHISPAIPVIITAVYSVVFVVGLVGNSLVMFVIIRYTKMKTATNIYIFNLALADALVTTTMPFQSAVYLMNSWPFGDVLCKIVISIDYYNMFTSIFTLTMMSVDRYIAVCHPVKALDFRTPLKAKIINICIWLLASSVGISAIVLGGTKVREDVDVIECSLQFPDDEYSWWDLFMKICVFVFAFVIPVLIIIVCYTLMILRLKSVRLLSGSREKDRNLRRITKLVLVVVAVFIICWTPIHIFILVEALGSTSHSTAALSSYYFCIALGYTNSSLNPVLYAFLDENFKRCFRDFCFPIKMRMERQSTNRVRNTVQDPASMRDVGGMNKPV

Substance: dynorphin A 1-13
- Ki (kOR [1]): 0.28 nM
- EC50 (kOR [2]): 14 nM
- EC50 (kOR [3]): 183 nM

— patent publication US20240269230A1 (priority 2020, published 2024)
